Measured affinities in a library of Ab-14 light chain variants

Source: Engelhart et al. 2022 (doi:10.1038/s41597-022-01779-4), MIT Lincoln Laboratory and A-Alpha Bio; data file from the FLAb repository.

Binding partner: SARS-CoV-2 spike HR2 peptide, sequence PDVDLGDISGINAS.

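The starting antibody came from a phage panning campaign against this peptide. AAYL50 was designed without a model: most single CDR substitutions and a random sample of double and triple ones. The scFvs were displayed on barcoded MATa yeast, the peptide on MATalpha yeast. The frequency of each diploid, read from paired DNA barcodes, reflects how well the two displayed proteins bind. Scores were corrected for input abundance and mapped to Kd with protein pairs of known affinity run in the same pool. There are three technical replicates.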

Each scFv is VH, a 15-residue (Gly4Ser)3 linker, VL, as in the parent Ab-14, and differs from it in the CDRs of the light chain only.
VH: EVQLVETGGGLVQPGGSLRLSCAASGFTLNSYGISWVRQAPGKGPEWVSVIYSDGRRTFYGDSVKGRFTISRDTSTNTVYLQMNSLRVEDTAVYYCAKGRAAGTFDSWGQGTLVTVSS
VL: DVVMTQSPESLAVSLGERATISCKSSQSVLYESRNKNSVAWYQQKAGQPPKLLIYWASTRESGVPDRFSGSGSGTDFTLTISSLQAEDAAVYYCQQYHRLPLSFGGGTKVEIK

Positions count from residue 1 of the parent VL; S25H puts H in place of S.
The Kd shown is the geometric mean over detected replicates; a lower Kd is a better binder.
Where no diploid with the target was found in any replicate, the entry reads "nd": below detection, most likely a poor binder, though not proof of it.
As a blank, each scFv also met three strains without target: over library AAYL50, 18% of these pairings were detected, typically at 15 µM and seldom below 970 nM. The control count says in how many pairings with the empty strains this scFv gave a signal.
In this assay the parent's reference entry averaged 4.4 nM; its copy inside this library read 48 nM.

{"changes": "S25H+S26K+N37S", "Kd": "400 nM", "detected": "3 of 3", "control signals": "8 of 9"}
{"changes": "V29N+L30S+A57T", "Kd": "14 nM", "detected": "3 of 3", "control signals": "1 of 9"}
{"changes": "S26I+V39T+T59R", "Kd": "nd", "detected": "0 of 3", "control signals": "0 of 9"}
{"changes": "S38V+Y97S+P101Y", "Kd": "8.8 µM", "detected": "2 of 3", "control signals": "2 of 9"}
{"changes": "E61R+Q96G+L102Q", "Kd": "nd", "detected": "0 of 3", "control signals": "1 of 9"}
{"changes": "S38V+Q95V+L102A", "Kd": "nd", "detected": "0 of 3", "control signals": "1 of 9"}
{"changes": "S25R+V39M+T59F", "Kd": "14 µM", "detected": "2 of 3", "control signals": "2 of 9"}
{"changes": "S26A+A40F+S103F", "Kd": "nd", "detected": "0 of 3", "control signals": "0 of 9"}
{"changes": "K24H+R34W+V39A", "Kd": "6.3 µM", "detected": "3 of 3", "control signals": "4 of 9"}
{"changes": "V29N+T59Y+R60W", "Kd": "970 nM", "detected": "1 of 3", "control signals": "0 of 9"}
{"changes": "E32V+K36A+L100Y", "Kd": "1.6 µM", "detected": "1 of 3", "control signals": "1 of 9"}
{"changes": "E32T+A40E+L102H", "Kd": "12 µM", "detected": "1 of 3", "control signals": "3 of 9"}
{"changes": "H98S+P101T", "Kd": "nd", "detected": "0 of 3", "control signals": "0 of 9"}
{"changes": "N37H+W56N", "Kd": "2.7 nM", "detected": "3 of 3", "control signals": "2 of 9"}
{"changes": "S33Q+S58Q", "Kd": "39 nM", "detected": "3 of 3", "control signals": "1 of 9"}
{"changes": "S25I+Q27Y+E61M", "Kd": "28 nM", "detected": "3 of 3", "control signals": "1 of 9"}
{"changes": "S33E+S38E+H98C", "Kd": "nd", "detected": "0 of 3", "control signals": "2 of 9"}
{"changes": "S25P+R34M+S38N", "Kd": "110 nM", "detected": "3 of 3", "control signals": "1 of 9"}
{"changes": "A40W+R60Y+Q96C", "Kd": "24 µM", "detected": "3 of 3", "control signals": "4 of 9"}
{"changes": "S33L+Q95F+Y97C", "Kd": "nd", "detected": "0 of 3", "control signals": "0 of 9"}
{"changes": "S33M+S38R+P101W", "Kd": "nd", "detected": "0 of 3", "control signals": "0 of 9"}
{"changes": "Q27W+R60V", "Kd": "1.9 µM", "detected": "3 of 3", "control signals": "2 of 9"}

Excerpt, the first 2 entries:

| changes | Kd | detected | control signals |
|---|---|---|---|
| S25H+S26K+N37S | 400 nM | 3 of 3 | 8 of 9 |
| V29N+L30S+A57T | 14 nM | 3 of 3 | 1 of 9 |